The entries are a selection whose mix differs from that of the whole data set. Activity calls are given as the source filed them.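 The calls were made as follows: active = thallium flux ratio, averaged over three wells, more than 5 SD below the buffer control mean; inactive = the rest.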

The nature of this assay: thallium flux inhibition in non-induced cells, primary screen, counter-screen for KCNK3 inhibitor project, cell-based, non-induced KCNK3 line, FluxOR thallium, triplicate (AID 651747).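 Also: host cells are CHO cells without KCNK3 induction.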 To be noted: non-induced KCNK3 parental cells, at 10 µM.
`CC(C)(C)OC(=O)N1CCC(N(C(=O)c2ccccc2)c2ccc(F)cc2)CC1`: the result was inactive.
Next, `Cc1cc(C)cc(N(C(=O)c2ccccc2)C2CCN(C(=O)OC(C)(C)C)CC2)c1`: “inactive”.
Next, `CC(C)(C)OC(=O)N1CCC(N(C(=O)c2ccccc2)c2ccc(Cl)cc2)CC1`: “inactive”.

These data come from PubChem BioAssay AID651747 (Johns Hopkins Ion Channel Center, 2012).
